A selection: hits, their analogues and other compounds. The true share with any hit is near 1%.
RXFP1 ag: RXFP1 (human) receptor agonism; HEK293T-RXFP1 cAMP TR-FRET, 30 min; response scale: percent of porcine relaxin response, buffer zero; Potency, µM (highest dose often 57.5 µM), usual class: activators; 370,000 compounds, 0.3% hits; AID 2676; note: nearly all actives have a fitted effect of over 60% in size
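HEK293T cells stably expressing RXFP1 were pretreated with the PDE4 inhibitor Ro 20174, exposed to compounds for 30 min at 37C, lysed, and cAMP was read by TR-FRET. Data normalized to buffer (basal) and 29 nM porcine relaxin (100%).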
gsp antagonist: gsp mutant antagonism; gsp-mutant cells, cAMP HTRF, 30 min; Potency, µM (titrated, usually from 76.9 µM), most hits filed as inhibitors; 340,000 compounds, 0.4% hits; AID 624288; calls by dose curve; cell line not stated here;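 note: intracellular cAMP measured with PDE inhibitor Ro 20-1724 present during compound exposure; nearly all actives have a fitted effect of over 65% in size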
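G418-selected cells were plated in DMEM/10% FBS for 16-24 h at 37C, then treated with compounds plus the PDE inhibitor […] (300 uM solution added) for 30 min at 37C. Intracellular cAMP was measured by HTRF after 30 min lysis at room temperature.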
gsp ag: activates gsp, the McCune-Albright syndrome mutation | gsp mutant cells, cAMP HTRF, 30 min | Potency, µM (series often up to 76.9 µM), most hits filed as activators | 340,000 compounds, 0.13% hits; active = well fitted activation curve with a large enough effect; inconclusive = small, poorly fitted or top-dose-only effect, or another doubt; inactive = no such curve, though single readings can be large or run the other way; cell line not stated here;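 note: phosphodiesterase inhibitor Ro 20-1724 added with compounds to block cAMP breakdown; nearly all actives have a fitted effect of over 60% in size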
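Cells stably selected in G418 were plated at 2000/well, grown 16-24 hr, then given compounds in DMSO with the PDE inhibitor […] (300 uM solution added) for 30 min at 37C; cAMP was read by HTRF.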
miR-21 FLuc: raises the signal of a miR-21 reporter | HeLa miR-21 FLuc reporter, luciferase, 48 h | Potency, µM (doses to about 38.3 µM) | 340,000 tested, under 10 active | AID 2288; active = well fitted rising curve with a large enough effect; inconclusive = small, poorly fitted or top-dose-only effect; inactive = no such curve, though single readings can be large or run the other way;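 note: miR-21 action dims this reporter so a rising signal means less miR-21 action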
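HeLa miR-21-FLuc reporter line, endogenous miR-21; 2000 cells/well in DMEM/10% FBS; compound titration up to ~40uM final, 48 h, 37 degree Celsius; luciferase detection reagent, 15 min lysis, CCD luminescence.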
Luc counter: blocks Kinase-Glo luciferase, a counter-screen artifact; AID 1379; Kinase-Glo luciferase, ATP luminescence, 8 min; Q27757; 200,000 compounds, 0.28% hits; Potency, µM (doses to about 38.3 µM), hits mostly inhibitors; note: nearly all actives have a fitted effect of over 60% in size
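Inhibition of Kinase-Glo luciferase light generation was assessed at 10 uM ATP in pH 7.2 imidazole buffer, with luminescence measured after eight minutes at ambient temperature.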
RXFP1 antag: RXFP1 (human) relaxin receptor antagonism; Q9HBX9; HEK293-RXFP1, relaxin-stimulated cAMP HTRF, 30 min; hits give low values; activity change, negative = inhibition, % at 57.5 µM; 350,000 compounds, 0.59% hits;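 active = activity change of -60% or lower, but not beyond a set lower limit; inconclusive = change between -60% and -40%, or beyond the set limit; inactive = change above -40%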
Hits are given with their value; [ ] = dose if it differs, or a comment. Unless noted, calls come from the whole dose curve; as a rule, active = well fitted curve in the direction sought with a large enough effect; inconclusive = small, poorly fitted or top-dose-only effect, or another doubt; inactive = no such curve, though single readings can be large; an effect the other way counts as inactive or inconclusive.

What do the screens show for `COc1ccc(CNC(=O)C2CCN(c3nc4ccc(C)cc4[nH]3)CC2)cc1`?
RXFP1 ag: inactive; miR-21 FLuc: inactive; RXFP1 antag: inactive

What do the screens show for `Cc1ccc(C2=NOC(=O)/C2=C\C=C\c2ccccc2)cc1`?
RXFP1 ag: inactive; gsp antagonist: inactive; gsp ag: inactive[15.4 µM]; miR-21 FLuc: inactive; Luc counter: inactive; RXFP1 antag: -108

Results for CCCCCC1CCC(c2n[nH]c(=S)n2C)CC1 (stereo not drawn) ?
RXFP1 ag: inactive; gsp antagonist: inactive; gsp ag: inactive[15.4 µM]; miR-21 FLuc: inactive; Luc counter: inactive; RXFP1 antag: -64

What do the screens show for `C=CCn1c(C2CC2)n[nH]c1=S`?
RXFP1 ag: inactive; gsp antagonist: inactive; gsp ag: inactive; miR-21 FLuc: inactive; Luc counter: inactive; RXFP1 antag: inactive

How did O=C(NNC(=O)c1ccccc1O)c1ccc(Cl)c(S(=O)(=O)N2CCc3ccccc32)c1 do in these assays?
RXFP1 ag: inactive; gsp antagonist: inconclusive; gsp ag: inactive[15.4 µM]; RXFP1 antag: -73

Results for CCN(CC)S(=O)(=O)c1cccc(NC(=O)Nc2cccc(C(F)(F)F)c2)c1 ?
RXFP1 ag: inactive; gsp antagonist: 32µM; gsp ag: inactive; miR-21 FLuc: inconclusive; Luc counter: inactive; RXFP1 antag: inactive

What do the screens show for `COc1cccc(Cn2ncc3c4sc(B(O)O)cc4n(C)c3c2=O)c1`?
RXFP1 ag: inactive

What do the screens show for `CC(C)Cn1c(N)c(C(=O)COC(=O)c2cnc(Cl)c(Cl)c2)c(=O)n(C)c1=O`?
RXFP1 ag: inactive; gsp antagonist: 35µM; gsp ag: inactive; miR-21 FLuc: inactive; Luc counter: inactive; RXFP1 antag: inactive

Results for CCOC(=O)Cc1csc(SCC(=O)c2c(N)n(CC(C)C)c(=O)n(C)c2=O)n1 ?
RXFP1 ag: inactive; gsp antagonist: 11µM; gsp ag: inactive; miR-21 FLuc: inactive; Luc counter: inactive; RXFP1 antag: inactive

What do the screens show for `CC(C)Cn1c(N)c(C(=O)COC(=O)c2cc(F)cc(F)c2)c(=O)n(C)c1=O`?
RXFP1 ag: inactive; gsp antagonist: inconclusive; gsp ag: inactive; miR-21 FLuc: inactive; Luc counter: inactive; RXFP1 antag: inactive

What do the screens show for `COc1ccccc1CCC(=O)OCC(=O)c1c(N)n(CC(C)C)c(=O)n(C)c1=O`?
RXFP1 ag: inactive; gsp antagonist: inactive; gsp ag: inactive; RXFP1 antag: inactive

What do the screens show for `CCOc1ccccc1OCC(=O)OCC(=O)c1c(N)n(CC(C)C)c(=O)n(C)c1=O`?
RXFP1 ag: inactive; gsp antagonist: 35µM; gsp ag: inactive; RXFP1 antag: inactive

How did COc1ccc(Br)cc1-c1nc(CCl)cs1 do in these assays?
RXFP1 ag: 18µM; gsp antagonist: inactive; gsp ag: inconclusive; miR-21 FLuc: inactive; Luc counter: inactive; RXFP1 antag: inactive

How did O=C(O)c1ccccc1N/N=C/C1=C(N2CCOCC2)C(=C\c2ccccc2)/CC1 do in these assays?
RXFP1 ag: inactive; gsp antagonist: inactive; gsp ag: inactive[15.4 µM]; miR-21 FLuc: inactive; RXFP1 antag: inactive

Results for Cc1cc(C)nc(N/N=C/C2=C(N3CCOCC3)C(=C/c3ccccc3)/CC2)n1 ?
RXFP1 ag: inactive; gsp antagonist: 28µM; gsp ag: inactive; miR-21 FLuc: inconclusive; Luc counter: inactive; RXFP1 antag: inactive

Results for Cc1ccc(CNC(=O)c2ccc(Cn3nc(C)cc3C)o2)cc1 ?
RXFP1 ag: inactive; gsp antagonist: inactive; gsp ag: inactive; miR-21 FLuc: inactive; RXFP1 antag: -117

How did COc1ccccc1-c1noc(CSc2nnc(Cc3ccccc3)n2-c2ccc(C)c(C)c2)n1 do in these assays?
RXFP1 ag: inactive; miR-21 FLuc: inactive; RXFP1 antag: -65

How did OCCN(CCO)c1ccc(C(c2ccccc2Cl)c2ccc(N(CCO)CCO)cc2Cl)c(Cl)c1 do in these assays?
RXFP1 ag: inactive; gsp antagonist: inconclusive; gsp ag: inactive; miR-21 FLuc: inactive; RXFP1 antag: -60

What do the screens show for `COc1ccccc1N1CCN(C(=O)c2ccc3c(c2)N(Cc2ccccc2)C(=O)c2ccccc2S3(=O)=O)CC1`?
RXFP1 ag: inactive; miR-21 FLuc: inactive; RXFP1 antag: inactive

How did Cc1ccc2nc(-c3ccccc3)cn2c1 do in these assays?
RXFP1 ag: inactive; gsp antagonist: inactive; gsp ag: inactive; miR-21 FLuc: inconclusive; Luc counter: 8.9µM

How did COc1ccccc1N/C=C/c1onc(C)c1[N+](=O)[O-] do in these assays?
RXFP1 ag: inactive; gsp antagonist: inactive; gsp ag: inactive; miR-21 FLuc: inactive; Luc counter: 11µM; RXFP1 antag: inactive

Results for Cc1noc(/C=C/Nc2ccc(F)cc2F)c1[N+](=O)[O-] ?
RXFP1 ag: inactive; gsp antagonist: inactive; gsp ag: inactive[15.4 µM]; miR-21 FLuc: inactive; Luc counter: inconclusive; RXFP1 antag: inactive

Results for CSc1ccc(S(=O)(=O)Nc2ccc3c4c(cccc24)CC3)cc1 ?
RXFP1 ag: inactive; gsp antagonist: 28µM; gsp ag: inactive; miR-21 FLuc: inactive; Luc counter: inactive; RXFP1 antag: inactive

What do the screens show for `O=S(=O)(Nc1ccc2c3c(cccc13)CC2)c1ccc(F)cc1`?
RXFP1 ag: inactive; gsp antagonist: inactive; gsp ag: inactive; miR-21 FLuc: inactive; Luc counter: inactive; RXFP1 antag: inactive

What do the screens show for `Cc1ccc(S(=O)(=O)N2CCc3nc(COc4ccccc4)c4c(c3C2)CO[C@@H](C)C4)cc1`?
Luc counter: inactive[7.66 µM]

How did O=C1N/C(=N/NC(=O)c2cccc3ccccc23)S/C1=C\c1ccccc1OCc1ccccc1 do in these assays?
RXFP1 ag: inactive; gsp antagonist: 28µM; gsp ag: inconclusive; miR-21 FLuc: inactive; Luc counter: inactive; RXFP1 antag: inconclusive

How did CCCN1C(=O)S/C(=C\c2ccc(N3CCOCC3)o2)C1=O do in these assays?
RXFP1 ag: inactive; gsp antagonist: inactive; gsp ag: inactive[15.4 µM]; miR-21 FLuc: inconclusive; Luc counter: inactive; RXFP1 antag: inactive

How did CCCN1C(=O)S/C(=C/c2ccc(N3CCOCC3)o2)C1=O do in these assays?
RXFP1 ag: inactive; gsp antagonist: inactive; gsp ag: inactive; miR-21 FLuc: inactive; RXFP1 antag: -92

What do the screens show for `CCc1ccccc1NC(=O)c1cc(S(=O)(=O)N2CCCc3ccccc32)ccc1F`?
RXFP1 ag: inactive; miR-21 FLuc: inactive; RXFP1 antag: inactive

Results for CCc1sc(C(C2C(=O)CC(C)(C)CC2=O)C2C(=O)CC(C)(C)CC2=O)cc1[N+](=O)[O-] ?
RXFP1 ag: inactive; gsp antagonist: inconclusive; gsp ag: inactive[15.4 µM]; miR-21 FLuc: inactive; Luc counter: inactive; RXFP1 antag: -98

Results for COc1ccccc1CNC(=O)c1c2c(nc3ccccc13)C(=O)N(C1CCCCC1)C2 ?
RXFP1 ag: inactive; miR-21 FLuc: inactive; RXFP1 antag: inactive

Source: PubChem
